Values of other authors as cited in patent publication US10336734B2.
Like-named read-outs stand apart in the source and are kept apart here.

Amino acid sequences for entries named in this document (tags omitted).
UniProt Q07912, whole entry: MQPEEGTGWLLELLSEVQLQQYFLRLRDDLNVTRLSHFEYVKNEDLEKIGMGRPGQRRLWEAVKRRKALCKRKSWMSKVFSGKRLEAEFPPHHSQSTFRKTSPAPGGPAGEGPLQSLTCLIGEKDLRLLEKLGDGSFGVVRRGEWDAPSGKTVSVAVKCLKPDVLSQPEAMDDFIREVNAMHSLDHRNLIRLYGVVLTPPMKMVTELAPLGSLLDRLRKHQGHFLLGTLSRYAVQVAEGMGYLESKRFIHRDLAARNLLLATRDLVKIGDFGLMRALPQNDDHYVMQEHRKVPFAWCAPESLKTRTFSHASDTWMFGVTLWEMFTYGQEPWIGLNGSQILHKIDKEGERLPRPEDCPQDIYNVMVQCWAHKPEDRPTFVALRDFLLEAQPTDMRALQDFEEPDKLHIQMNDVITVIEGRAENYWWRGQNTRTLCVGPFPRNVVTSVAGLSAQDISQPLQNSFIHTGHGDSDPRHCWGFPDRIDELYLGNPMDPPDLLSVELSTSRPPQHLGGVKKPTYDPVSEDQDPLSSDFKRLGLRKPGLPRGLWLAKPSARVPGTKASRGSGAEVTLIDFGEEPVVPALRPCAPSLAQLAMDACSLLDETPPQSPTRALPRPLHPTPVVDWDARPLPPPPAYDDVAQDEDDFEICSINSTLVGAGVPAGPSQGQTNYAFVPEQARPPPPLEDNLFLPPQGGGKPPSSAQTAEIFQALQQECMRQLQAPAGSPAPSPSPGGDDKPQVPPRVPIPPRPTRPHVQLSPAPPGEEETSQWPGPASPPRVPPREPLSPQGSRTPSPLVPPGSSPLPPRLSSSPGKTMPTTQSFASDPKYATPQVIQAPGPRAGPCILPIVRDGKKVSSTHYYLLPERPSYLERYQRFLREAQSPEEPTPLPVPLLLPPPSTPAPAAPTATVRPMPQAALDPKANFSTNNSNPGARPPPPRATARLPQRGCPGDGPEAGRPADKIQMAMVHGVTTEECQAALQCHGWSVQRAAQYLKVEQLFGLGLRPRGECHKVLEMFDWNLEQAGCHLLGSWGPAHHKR

What was measured:
[1] = cited from earlier work
ACK1 [2] = target: T1, ACK1 (Homo sapiens (Human), UniProt Q07912); settings: cited from earlier work
ACK1 [3] = target: T1, ACK1; settings: read-out: IC50, inhibition of ACK1 autophosphorylation in intact cells; cited from earlier work
[4] = system: cell line which is dependent upon ACK1; settings: read-out: IC50, growth of ACK1-dependent cell line; cited from earlier work

COc1cc(Oc2ccccc2)ccc1-c1nc([C@H]2C[C@@](C)(O)C2)n2ccnc(N)c12 (relative stereo)
Oral bioavailability ([1]; mouse models): orally bioavailable

COC(C)(C)CCn1nc(Nc2c(C)cccc2C)c2cnc(Nc3ccccc3)nc21
IC50 (ACK1 [2]; read-out: IC50 ACK1 in vitro): 2 nM
IC50 (ACK1 [3]): 20 nM

CN(C)CCOc1ccc(-c2oc3ncnc(NCC4SCCS4)c3c2-c2ccccc2)cc1
Ki (ACK1 [2]; read-out: Ki ACK1): 0.3 nM
IC50 [4]: 5 nM
pharmacokinetic properties ([1]; in vivo): poor pharmacokinetic properties
